Values of other authors as cited in US10583106B2, “Method of treating cancer by oral administration of acetate composition comprising magnesium acetate, calcium acetate or ethylacetate” (priority 2015, dated 2020).

Test system: MeCP2 knockdown in human SK-NSH cells
Conditions: text; Vecsler, 2010; cited from earlier work

**Q.** With `CCCC(CCC)C(=O)O` [Valproic acid] as the compound, how does the BDNF read?
**A.** The BDNF was “increased”.
